Assay results from patent publication EP3368527B1, “PALBOCICLIB TOSYLATE” (Egis Gyógyszergyár Zrt., priority 2015, dated 2017).

Experiment: Dynamic vapour sorption analysis (DVS): water sorption isotherms, hygroscopicity
Type: physicochemical
Details: 25 °C

Substance	hygroscopicity (water sorption isotherms)
palbociclib hydrogen bromide (1:1) salt	does not exhibit significant hygroscopicity
palbociclib hydrogen bromide (1:2) dihydrate salt	exhibits significant hygroscopicity
